A word on the Kd: it is the equilibrium constant for the complex coming apart. Read a high Kd as lower affinity.

In this assay the target is muskelin CTLH-CRA domain (205–735 Δ248–625) (rat, UniProt Q99PV3 205-735, Δ248–625). Put plainly: ITC.

B1: RanBP10 CTLH-CRA domain Q519G (domain or fragment)
chain: GPEEQASIKNRQKIQKLVLEGRVGEAIETTQRFYPGLLEHNPNLLFMLKCRQFVEMVNGTDSEVRSLSSGGNQAATERIILFGRELGALSEQLGREYGKNLAHTEMLQDAFSLLAYSDPWSCPVGHQLDPIQREPVCAALNSAILESQ
In the case of B1, binding was put at a Kd of 8.49 nM.

These data come from publication PMC13061415 (2026).
